Data on 4 molecules can be found in patent publication US10149839B2, “Chemical compounds” (AstraZeneca AB, priority 2016, dated 2018).

Protein sequences, listed by entry. Tags and fused reporters are not part of them. Residues count along the entry.
UniProt P03372, 307-554: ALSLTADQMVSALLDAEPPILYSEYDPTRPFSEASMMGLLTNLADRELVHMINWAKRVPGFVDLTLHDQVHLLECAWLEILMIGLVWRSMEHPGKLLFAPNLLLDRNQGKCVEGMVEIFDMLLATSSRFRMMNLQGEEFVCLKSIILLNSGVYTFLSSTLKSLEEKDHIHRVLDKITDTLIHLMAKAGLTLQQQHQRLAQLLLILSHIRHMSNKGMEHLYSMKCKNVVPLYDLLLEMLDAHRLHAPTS

pIC50: −log10 of the molar value.

The test deals with recombinant human Estrogen Receptor alpha ligand binding domain (ER alpha-LBD (GST)) (Homo sapiens (Human), UniProt P03372). In words: ERα binding assay (LanthaScreen TR-FRET competition). The settings on record: read-out: ER binding IC50 value, 50% reduction in tracer binding to ER alpha-LBD.
As to `C[C@@H]1Cc2c([nH]c3ccccc23)[C@@H](c2ccc(OCCNCCCF)cc2)N1CC(C)(F)F` [Example 57, N-(2-(4-((1R,3R)-2-(2,2-difluoropropyl)-3-methyl-2,3,4,9-tetrahydro-1H-pyrido[3,4-b]indol-1-yl)phenoxy)ethyl)-3-fluoropropan-1-amine], the negative-log IC50 (pIC50) is 8.48.
Next, `C[C@@H]1Cc2c([nH]c3ccccc23)[C@@H](c2c(F)cc(NCCNCCCF)cc2F)N1CC(F)F` [Example 54, N1-(4-((1R,3R)-2-(2,2-difluoroethyl)-3-methyl-2,3,4,9-tetrahydro-1H-pyrido[3,4-b]indol-1-yl)-3,5-difluorophenyl)-N2-(3-fluoropropyl)ethane-1,2-diamine]: 8.80; `COc1cc(NCCNCCCF)ccc1[C@@H]1c2[nH]c3ccccc3c2C[C@@H](C)N1CC(F)(F)CO` [Example 59, 2,2-difluoro-3-((1R,3R)-1-(4-((2-((3-fluoropropyl)amino)ethyl)amino)-2-methoxyphenyl)-3-methyl-1,3,4,9-tetrahydro-2H-pyrido[3,4-b]indol-2-yl)propan-1-ol]: 8.00.
Next, `COc1cc(OCCNCCCF)ncc1[C@@H]1c2[nH]c3ccccc3c2C[C@@H](C)N1CC(C)(C)F` [Example 36, 3-fluoro-N-(2-((5-((1R,3R)-2-(2-fluoro-2-methylpropyl)-3-methyl-2,3,4,9-tetrahydro-1H-pyrido[3,4-b]indol-1-yl)-4-methoxypyridin-2-yl)oxy)ethyl)propan-1-amine]: 8.64.
